AlphaSeq binding of Ab-91 heavy chain variants to a spike HR2 peptide

All variants were tested on one target, the spike HR2 peptide PDVDLGDISGINAS (SARS-CoV-2).

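Phage display of a naive human antibody library on the peptide gave the parent. In library AAYL51, one, two or three CDR residues were substituted; doubles and triples were drawn at random. AlphaSeq pools MATa yeast showing the antibodies with MATalpha yeast showing the peptide. After mating in shaken culture at 30 °C for 16 h, diploids were selected and their barcode pairs sequenced. Read counts were normalised to the haploid input and turned into Kd by a linear fit to BCL2-family pairs of known affinity, for each replicate. Mating was done three times.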

The variants keep the light chain, the linker and the frameworks of Ab-91 (scFv order VL, three GGGGS repeats, VH).
VL: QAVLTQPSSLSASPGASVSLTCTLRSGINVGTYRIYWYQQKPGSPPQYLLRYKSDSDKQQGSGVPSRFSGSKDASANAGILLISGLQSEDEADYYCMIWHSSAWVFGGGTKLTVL
VH: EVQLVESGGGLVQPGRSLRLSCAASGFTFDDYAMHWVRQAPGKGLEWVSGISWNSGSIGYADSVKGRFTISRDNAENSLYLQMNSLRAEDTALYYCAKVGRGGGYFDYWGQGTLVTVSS

Variants are written as CDR1, CDR2 and CDR3 of the heavy chain (limits as in the source). Parent: GFTFDDYAMH, GISWNSGSIGYADSVK, VGRGGGYFDY.
This list gathers variants with a substitution at V64 (VH, numbered from residue 1).
Values are log10 of the apparent Kd in nM; lower means stronger binding.
Averages over replicates are reported, and they cover detected replicates only.
A pair that was not seen in that replicate is written "ND"; this usually means weak binding, but a binder can also be missed.

Variant GFTFDDYPMH | GDSWNSGSIGYADSQK | VGRGGGYFDY gave ND, ND, ND. Variant GFTFDDYAMH | GISWNSGSPGYADSPK | VGRGGGEFDY gave 4.25, ND, ND. Variant GFTFDDYAMH | GISWNSGVIRYADSYK | VGRGGGYFDY gave ND, ND, ND. With GFTFDDYAMH | GISWNSGSIGYADSLK | VGRGFGYFDY the result was ND, 3.67, ND. With GFTFDDYAMH | GISWNSGSIGYADSDK | VGRKGGRFDY the result was 6.44, ND, ND. For GFTFKDYAMH | GISWNSGSIGYADSYK | VGRGFGYFDY, the assay gave 3.39, 4.27, 4.45 (mean 4.03). With GFTFDDYAMH | GISWNSGSAGYADSSK | VMRGGGYFDY the result was ND, ND, ND. Variant GFTFDDYAMH | GISTNSQSIGYADSMK | VGRGGGYFDY gave 2.10, 2.16, 2.09 (mean 2.11).

With GFTFDDYAMP | GISWNSGSIGQADSDK | VGRGGGYFDY the result was 4.50, ND, ND. Variant GFMFDDYAMA | GISWNSGSIGYADSEK | VGRGGGYFDY gave ND, ND, ND. Variant GFTFDDYAMH | GISWNSGSQGYADSGK | VGRGGGYFHY gave 2.78, ND, ND. Variant GFTFDDYAMH | GISWQSGSIGYADSDK | VGRGGGYFDK showed 2.82, ND, ND. Variant GFTFDDYSMH | GISWNSGSICYADSCK | VGRGGGYFDY showed 4.37, 3.23, ND (mean 3.80). Variant GFTFDDYAMH | CISWNSGSIGYADSMK | VGRGGGDFDY gave 3.79, ND, 5.10 (mean 4.45). For GKTFDDYAMH | GISWNSGSIGYADIPK | VGRGGGYFDY, the assay gave 4.75, 6.51, ND (mean 5.63). Variant VFTFDDYAMH | GISWNSGSIGYADSNK | VGRGGGYFDQ gave ND, ND, ND.

With GFTFDDYAMH | GISNNSGSIYYADSWK | VGRGGGYFDY the result was 4.50, 4.78, ND (mean 4.64). For WFTFDDYEMH | GISWNSGSIGYADSKK | VGRGGGYFDY, the assay gave ND, ND, ND. Variant GFTFDDYAMH | GYSWNSGSIGYADSGK | VGRGGGYFDW gave ND, ND, ND. With GFTFDDYAMH | GISWNSGSSGYADSNK | QGRGGGYFDY the result was ND, 5.10, ND. Variant GFTLTDYAMH | GISWNSGSIGYADSMK | VGRGGGYFDY showed ND, ND, ND. With GFTFDDYAMH | GSSWNSGSWGYADSCK | VGRGGGYFDY the result was ND, 5.20, ND. Variant GFTIDDYAMH | GISWNSGSIGYADSLS | VGRGGGYFDY showed 2.46, 2.50, 1.61 (mean 2.19). With GFTFDDYAMH | GISWNSGSTGYADSLK | VGRGGGYFDW the result was ND, ND, ND.

Variant GFTFDDYAMH | GISWNSGSIGYMDSPK | VGVGGGYFDY gave 5.45, 5.83, ND (mean 5.64). Variant GFTTDDYAMH | GISWFSGSIGYADSLK | VGRGGGYFDY showed ND, 4.51, ND. With GFTFDDYAMH | GISWTSGSIGYADSSK | VGRGGGYWDY the result was ND, 5.07, ND. With HFTFDDYAMH | GISWNSGSIGYADSNK | VGRGGGYEDY the result was 3.81, 6.48, ND (mean 5.14). Variant GFTFDDYAMH | GISWNGGSIGYADSKK | VGRGGGYFDY showed 3.91, 5.66, ND (mean 4.79). For GFTFDDYAMH | GISWNSGSIGYADSQK | YGRGDGYFDY, the assay gave ND, ND, ND. For GFTFDDYAMH | GIPWNSGSIGYADSCK | VGRGKGYFDY, the assay gave ND, 4.90, ND.

Repeated from above, the 3 best binders with a signal in all replicates:

CDR-H1	CDR-H2	CDR-H3	log10 Kd (nM) by replicate	log10 Kd (nM), mean
GFTFDDYAMH	GISTNSQSIGYADSMK	VGRGGGYFDY	2.10, 2.16, 2.09	2.11
GFTIDDYAMH	GISWNSGSIGYADSLS	VGRGGGYFDY	2.46, 2.50, 1.61	2.19
GFTFKDYAMH	GISWNSGSIGYADSYK	VGRGFGYFDY	3.39, 4.27, 4.45	4.03

For reference, the parent read 1.86 as the reference entry and 0.88 as a member of this library.
Three control strains display no target. For library AAYL51, 21% of the pairings with them gave a signal, with a median of 4.54 and one signal in twenty below 3.26, so weak values seen in few replicates may be background.

Reference: Engelhart et al. 2022, doi:10.1038/s41597-022-01779-4. File: FLAb, binding data.